Measured values from BindingDB's records for doi:10.1016/s0165-6147(97)01043-2 (Roche Bioscience, 1997).

The chains behind the UniProt entries cited, without tags or fusion partners.
UniProt P32305, whole entry: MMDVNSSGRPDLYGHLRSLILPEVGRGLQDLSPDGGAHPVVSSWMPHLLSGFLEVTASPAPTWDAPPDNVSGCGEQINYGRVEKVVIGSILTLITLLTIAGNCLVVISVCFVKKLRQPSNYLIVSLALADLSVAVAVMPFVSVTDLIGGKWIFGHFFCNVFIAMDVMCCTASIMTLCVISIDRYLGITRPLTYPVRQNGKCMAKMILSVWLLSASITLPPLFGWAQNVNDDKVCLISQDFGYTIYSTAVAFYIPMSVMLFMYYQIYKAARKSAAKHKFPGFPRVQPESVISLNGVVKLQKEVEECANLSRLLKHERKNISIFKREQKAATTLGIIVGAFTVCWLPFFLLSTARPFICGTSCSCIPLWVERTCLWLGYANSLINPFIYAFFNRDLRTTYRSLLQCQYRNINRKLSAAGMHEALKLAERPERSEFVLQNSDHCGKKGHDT

Target: 5-hydroxytryptamine receptor 7 (Rattus norvegicus, UniProt P32305)

**Q.** Which Ki does the source give for COc1ccc2[nH]cc(CCN)c2c1 [tryptamine, 5-Methoxy] here?
**A.** 1 nM
